Source: paper PMC8773746

Molecular target: Human erythropoietin (Epoetin β) (human) (UniProt P01588)
Assay: SPR; EPO immobilised by amine coupling on a ProteOn GLH chip (up to 3 000 RU); S100 or CaM as analyte (0.25–4 μM); 25 °C; 10 mM HEPES, 150 mM NaCl, 0.05% TWEEN 20, pH 7.4, 1 mM CaCl2; heterogeneous ligand model, values averaged over analyte concentrations (n = 5)

Kd1 (heterogeneous ligand model, ligand population L1): 150 nM | Kd2 (heterogeneous ligand model, ligand population L2): 650 nM | ka1 (heterogeneous ligand model, ligand population L1): 3000 M⁻¹ s⁻¹ | ka2 (heterogeneous ligand model, ligand population L2): 25000 M⁻¹ s⁻¹ | kd1 (heterogeneous ligand model, ligand population L1): 0.00045 s⁻¹ | kd2 (heterogeneous ligand model, ligand population L2): 0.016 s⁻¹
Substance: Human S100A6 protein (from UniProt P06703 1-90) (natural protein)
